According to PMC11433870, “Neurotoxicity, Neuroprotection, In Vitro MAOA/MAOB Inhibitory Activity Assessment, Molecular Docking, and Permeability Assay Studies of Newly Synthesized Hydrazones Containing a Pyrrole Ring” (Molecules, 2024):

Key:
[1] = test system: isolated rat brain mitochondria; test: t-BuOOH-induced oxidative stress model: MDA production; conditions: toxic agent applied alone, compared to control
[2] = test system: isolated rat brain mitochondria; test: t-BuOOH-induced oxidative stress model: GSH level; conditions: toxic agent applied alone, compared to control

In the case of `CC(C)(C)OO`, the “increase of MDA production by toxic agent alone” value [1] is reported as 154% and the “decrease of GSH level by toxic agent alone” value [2] is reported as 50%.
